According to patent US9164075B2, “Glutathione alkylester isotopologue and method for detecting reactive metabolite” (priority 2011, dated 2015):

Settings: glutathione ethyl ester-d5 used as the trapping agent, rat liver microsomes
Description: NADPH (20 mmol/L, […]) was added to the pre-incubated incubation mixture and a reaction (incubation) was started. The final incubation volume was 1 mL. A sample containing no object compound was used as a control.
After incubation at 37° C. for 60 minutes, a 50 mmol/L aqueous dithiothreitol solution (100 μL, 5 μmol) was added to the incubation mixture, and the resultant mixture was subjected to centrifugation at 10,000 g for 5 minutes. The centrifugation supernatant was added to a solid phase extraction column (OASIS HLB 1 cc, 30 mg) that was pre-washed with 1 mL of methanol and activated with 1 mL of purified water. The column was washed with 1 mL of water and 1 mL of 5% methanol solution, and a reaction product was eluted with 1 mL of methanol. The solvent was removed by evaporation under nitrogen flow, and the residue was dissolved in 150 μL of acetonitrile:water (2:8) to prepare an analysis sample.
An AQCUITY UPLC system (WATERS) was used for separation by chromatography. Aliquots (10 μL) of the prepared analysis sample was injected into an AQCUITY UPLC BEH C18 column (2.1×100 mm, 1.7 μm). The separation by chromatography was performed under gradient conditions shown in the following table at a mobile phase flow rate of 0.5 mL/minute.
The LC column eluate obtained in step 2-1 was introduced into an LTQ XL ion trap mass spectrometer. […]

judgement of reactive metabolite formation: positive
Compound: O=C(O)Cc1ccccc1Nc1c(Cl)cccc1Cl [diclofenac]
